In ChEMBL document CHEMBL5528084, “Discovery and Characterization of a New Class of C5aR1 Antagonists Showing In Vivo Activity” (J Med Chem, 2024) one finds inhibition data, which are given here for one compound.

For this experiment, the target named is T1, C3a anaphylatoxin chemotactic receptor (Homo sapiens) (UniProt Q16581).
T1 sequence (whole entry): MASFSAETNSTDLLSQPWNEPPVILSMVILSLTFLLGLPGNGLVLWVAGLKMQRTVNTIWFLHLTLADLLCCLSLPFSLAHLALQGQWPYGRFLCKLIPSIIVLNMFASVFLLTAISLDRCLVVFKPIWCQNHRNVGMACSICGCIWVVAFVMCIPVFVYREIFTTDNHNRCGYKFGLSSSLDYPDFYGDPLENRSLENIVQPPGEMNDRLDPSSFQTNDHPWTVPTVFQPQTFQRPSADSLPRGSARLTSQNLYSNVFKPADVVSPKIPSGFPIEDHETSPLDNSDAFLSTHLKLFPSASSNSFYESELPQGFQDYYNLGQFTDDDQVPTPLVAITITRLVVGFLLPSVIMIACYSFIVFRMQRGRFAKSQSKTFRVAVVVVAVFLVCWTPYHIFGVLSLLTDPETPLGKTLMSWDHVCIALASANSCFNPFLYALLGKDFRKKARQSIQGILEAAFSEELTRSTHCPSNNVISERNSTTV
Put plainly: Inhibition of C3aR (unknown origin) upto 25 uM.

The source made the active and inactive calls. The calls are words filed in the database; no cut-off is given here.

Turning to `Cc1cccc(F)c1N1CCC(N2Cc3ccccc3N(Cc3ccccc3C(F)(F)F)C2=O)CC1`, the inhibition entry is “inactive”.
